Data reported in article PMC6631257, “A Single Site Population Study to Investigate CYP2D6 Phenotype of Patients with Persistent Non-Malignant Pain” (Medicina, 2019).

System: patients with persistent non-malignant pain

**Q.** Which results are given for `COc1ccc2c3c1O[C@H]1[C@@H](O)C=C[C@H]4[C@@H](C2)N(C)CC[C@@]341` [codeine]?
**A.** 'unexpected' adverse event: flu-like symptoms, participants (11/125): 8%; 'unexpected' adverse event: stomach cramps, participants (11/125): 9%; 'unexpected' adverse event: diarrhoea, participants (13/125): 10%; 'expected' adverse event: constipation, participants (37/125): 30%; 'expected' adverse event: nausea, participants (41/125): 33%; 'expected' adverse event: headache, participants (46/125): 37%; serious adverse events (during the course of the study): no reported serious adverse events; participants who withdrew from the study due to adverse events (females, of 131 enrolled): Three
